Reference: US11273203B2, “Methods of mitigating toxic effects of vesicants and caustic gas” (dated 2022)

Columns and labels:
[1] = test system: male Wistar rats exposed to nitrogen mustard (NM); test: NM-induced pulmonary fibrosis, PTA-contrasted microCT fibrosis score; conditions: 70-day post exposure; TPOm 0.3 mg/kg, 2 or 3 doses; vehicle control 4.33; FIG. 5A
[2] = test system: male Wistar rats exposed to nitrogen mustard (NM); test: MRI (T2-weighted) measurement of NM-induced pulmonary edema; conditions: day 42 and day 70; TPOm at 6 h and Day 7, or 6 h, Day 7 and 14; compared to NM alone (p=0.0104 and p=0.0770)
[3] = test system: male Wistar rats exposed to nitrogen mustard (NM); test: NM-induced mortality and body weight; conditions: NM 1.7 mg/kg; TPOm 0.3 mg/kg s.c. 6 h following NM exposure; not powered to resolve significance; FIG. 6

Question: Which fibrosis score [1] does the source give for “methoxypolyethyleneglycol20000-propionyl-L-Isoleucyl-L-Glutamyl-Glycyl-L-Prolyl-L-Threonyl-L-Leucyl-L-Arginyl-L-Glutaminyl-L-2-Naphthylalanyl-L-Leucyl-L-Alanyl-L-Alanyl-L-Arginyl-Sarcosyl-Ne-(methoxypolyethyleneglycol20000-propionyl-L-Isoleucyl-L-Glutamyl-Glycyl-L-Prolyl-L-Threonyl-L-Leucyl-L-Arginyl-L-Glutaminyl-L-2-Naphthylalanyl-L-Leucyl-L-Alanyl-L-Alanyl-L-Arginyl-Sarcosyl-)-Lysinamide” here?
Answer: 2.11 and 1.89

Question: And the “mean pulmonary edema volumes” value [2]?
Answer: lower

Question: And the “NM-induced mortality (survival)” value [3]?
Answer: prolong life and resulted in fewer deaths

Where “and” joins values, the source holds several entries; their conditions need not be identical. Equal entries are not always repeated.
